Our source for the IC50 values is ChEMBL document CHEMBL3112556, “Novel GlyT1 inhibitor chemotypes by scaffold hopping. Part 2: development of a [3.3.0]-based series and other piperidine bioisosteres” (Bioorg Med Chem Lett, 2014).

Each structure is given as a SMILES string. Where only a bound is given, the exact number is not on record here.

The experiment addresses T1, Sodium- and chloride-dependent glycine transporter 1 (Homo sapiens, UniProt P48067).
T1 sequence (P48067 whole entry): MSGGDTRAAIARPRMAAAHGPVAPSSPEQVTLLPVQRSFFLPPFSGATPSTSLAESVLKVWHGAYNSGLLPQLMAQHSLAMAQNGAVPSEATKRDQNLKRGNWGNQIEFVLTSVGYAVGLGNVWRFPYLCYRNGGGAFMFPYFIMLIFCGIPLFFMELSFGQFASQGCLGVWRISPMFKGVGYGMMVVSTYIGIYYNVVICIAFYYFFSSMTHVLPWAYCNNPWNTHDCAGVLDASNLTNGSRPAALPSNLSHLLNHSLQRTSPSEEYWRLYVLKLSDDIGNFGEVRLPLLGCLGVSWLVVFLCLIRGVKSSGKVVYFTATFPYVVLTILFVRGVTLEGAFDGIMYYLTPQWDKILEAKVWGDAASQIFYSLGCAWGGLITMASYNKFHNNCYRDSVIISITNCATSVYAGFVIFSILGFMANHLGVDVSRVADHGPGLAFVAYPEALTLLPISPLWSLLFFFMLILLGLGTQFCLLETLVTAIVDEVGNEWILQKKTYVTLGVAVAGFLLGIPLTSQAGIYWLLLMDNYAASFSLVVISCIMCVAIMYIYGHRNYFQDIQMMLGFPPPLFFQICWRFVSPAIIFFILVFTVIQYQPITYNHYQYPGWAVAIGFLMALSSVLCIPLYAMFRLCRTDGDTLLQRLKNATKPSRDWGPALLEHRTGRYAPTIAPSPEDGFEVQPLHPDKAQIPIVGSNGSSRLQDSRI
In words: Inhibition of GlyT1 (unknown origin) assessed as [14C]-glycine transport.
With `Cn1cnc(S(=O)(=O)N2CC([C@H](NC(=O)c3ccc(Cl)cc3Cl)c3ccccn3)C2)c1`, the IC50 – broadly, the concentration that gives 50% inhibition – stood at 39 nM. For `Cn1cnc(S(=O)(=O)N2CC([C@@H](NC(=O)c3ccc(Cl)cc3Cl)c3ccccn3)C2)c1` the value was 900 nM.

As to `Cn1cnc(S(=O)(=O)N2C[C@H]3CC[C@@H](NC(=O)c4ccc(Cl)cc4Cl)[C@H]3C2)c1`, the IC50 amounted to 433 nM. For `Cn1cnc(S(=O)(=O)N2C[C@@H]3CC[C@H](NC(=O)c4ccc(Cl)cc4Cl)[C@@H]3C2)c1` the value was greater than 10000 nM.
